# Laboratory results: PMC11904993, “Humanized Candida and NanoBiT Assays Expedite Discovery of Bdf1 Bromodomain Inhibitors With Antifungal Potential” (Advanced Science, 2025)
# pIC50: −log10 of the molar value. Several values for one entry are separate records, joined by “and”; a condition that tells them apart may be missing. Identical values can stand only once.
# Columns and labels:
# human Brd4 BD1 = human Brd4 BD1 (Homo sapiens, UniProt O60885); assay: HTRF assay, inhibition of H4ac4 peptide binding; details: hBrd4 BD1; individual experiments Exp1-3; Table S4
# human Brd4 BD2 = human Brd4 BD2 (Homo sapiens, UniProt O60885); assay: HTRF assay, inhibition of H4ac4 peptide binding; details: hBrd4 BD2; individual experiments Exp1-3; Table S4
Compound,pIC50 (human Brd4 BD1),pIC50 (human Brd4 BD2)
COC(=O)c1ccc(NC(=O)C2CC(=O)N(c3ccc4c(c3)CCN4C(C)=O)C2)cc1 (stereo not drawn),< 4.00,< 4.70
CCC(C)NC(=O)Nc1cc2c(cc1Oc1ccccc1)n(C)c(=O)n2C (stereo not drawn),4.70 and 4.71 and 4.59,5.55 and 5.45 and 5.61
CCCN(CC1CC1)C(=O)C1C(c2cc(OC)c(OC)c(OC)c2)c2cc3c(cc2C(O)C1CO)OCO3 (stereo not drawn),< 4.70,< 4.70
